Assays:
Test in all cases: RRS screen in yeast, whole Karet protein against an embryonic mouse brain library
[1] = molecular target: T1, cytochrome P450, family 26, subfamily b, polypeptide 1 (Cyp26b1), mRNA (mouse, UniProt Q811W2 1-512, limits assumed)
T1 construct: RRS library clone (embryonic mouse brain)
T1 sequence (looked up): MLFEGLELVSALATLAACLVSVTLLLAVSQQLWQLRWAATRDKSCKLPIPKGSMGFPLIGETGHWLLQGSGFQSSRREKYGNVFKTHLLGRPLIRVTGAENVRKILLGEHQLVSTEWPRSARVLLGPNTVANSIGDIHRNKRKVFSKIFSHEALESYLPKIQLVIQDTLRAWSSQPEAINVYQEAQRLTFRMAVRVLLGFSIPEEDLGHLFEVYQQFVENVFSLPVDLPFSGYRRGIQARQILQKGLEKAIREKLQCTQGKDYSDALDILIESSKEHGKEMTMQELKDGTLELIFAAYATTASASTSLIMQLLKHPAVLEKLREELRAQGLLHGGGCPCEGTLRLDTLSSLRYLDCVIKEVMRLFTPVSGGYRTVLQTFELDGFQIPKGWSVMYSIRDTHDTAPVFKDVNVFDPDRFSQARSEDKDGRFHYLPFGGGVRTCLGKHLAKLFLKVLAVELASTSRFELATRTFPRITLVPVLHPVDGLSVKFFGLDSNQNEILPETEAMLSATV

[2] = molecular target: T2, Neural precursor cell expressed, developmentally down-regulted gene 4 (Nedd4), mRNA (mouse, UniProt P46935)
T2 construct: RRS library clone (embryonic mouse brain)

[3] = molecular target: T3, Ubiquitin-activating enzyme E1, Chr X (Ube1x), mRNA (mouse, UniProt Q02053 2-1058, limits assumed)
T3 construct: RRS library clone (embryonic mouse brain)
T3 sequence (looked up): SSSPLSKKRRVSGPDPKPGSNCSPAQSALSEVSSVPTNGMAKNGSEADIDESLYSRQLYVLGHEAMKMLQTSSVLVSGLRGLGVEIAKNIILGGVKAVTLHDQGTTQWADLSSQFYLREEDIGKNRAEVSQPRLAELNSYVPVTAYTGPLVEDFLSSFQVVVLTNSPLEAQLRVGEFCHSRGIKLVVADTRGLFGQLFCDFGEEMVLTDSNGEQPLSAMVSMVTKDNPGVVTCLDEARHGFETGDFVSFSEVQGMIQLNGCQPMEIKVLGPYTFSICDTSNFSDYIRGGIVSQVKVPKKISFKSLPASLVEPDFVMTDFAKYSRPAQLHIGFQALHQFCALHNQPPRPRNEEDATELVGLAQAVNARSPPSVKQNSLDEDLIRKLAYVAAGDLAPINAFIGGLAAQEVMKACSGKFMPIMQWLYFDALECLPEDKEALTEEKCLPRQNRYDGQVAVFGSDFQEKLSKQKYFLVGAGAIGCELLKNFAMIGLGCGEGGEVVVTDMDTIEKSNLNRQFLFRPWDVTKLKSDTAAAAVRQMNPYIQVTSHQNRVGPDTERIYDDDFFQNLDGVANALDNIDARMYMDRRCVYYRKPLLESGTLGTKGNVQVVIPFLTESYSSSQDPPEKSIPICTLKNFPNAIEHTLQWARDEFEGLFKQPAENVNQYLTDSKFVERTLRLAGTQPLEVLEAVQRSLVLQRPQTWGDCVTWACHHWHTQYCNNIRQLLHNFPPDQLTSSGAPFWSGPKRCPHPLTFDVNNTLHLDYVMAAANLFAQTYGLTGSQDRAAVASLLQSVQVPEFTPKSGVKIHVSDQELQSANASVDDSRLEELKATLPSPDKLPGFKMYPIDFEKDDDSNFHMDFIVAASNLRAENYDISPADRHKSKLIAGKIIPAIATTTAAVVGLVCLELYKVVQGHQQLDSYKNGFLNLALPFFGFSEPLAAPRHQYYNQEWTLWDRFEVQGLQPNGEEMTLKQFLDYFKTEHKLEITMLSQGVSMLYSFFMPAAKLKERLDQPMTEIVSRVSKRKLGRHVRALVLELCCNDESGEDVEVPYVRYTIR

[4] = molecular target: T4, Fyn- proto oncogene tyrosine protein kinase, mRNA (mouse, UniProt P39688)
T4 construct: RRS library clone (embryonic mouse brain)

[5] = molecular target: T5, ATP Synthase, H+ transporting mitochondrial F1 complex, beta subunit(Atp5b) (mouse, UniProt P56480)
T5 construct: RRS library clone (embryonic mouse brain)

[6] = molecular target: T6, CAP, adenylate cyclase-associated protein 1 (mouse, UniProt P40124 2-474, limits assumed)
T6 construct: RRS library clone (embryonic mouse brain)
T6 sequence (looked up): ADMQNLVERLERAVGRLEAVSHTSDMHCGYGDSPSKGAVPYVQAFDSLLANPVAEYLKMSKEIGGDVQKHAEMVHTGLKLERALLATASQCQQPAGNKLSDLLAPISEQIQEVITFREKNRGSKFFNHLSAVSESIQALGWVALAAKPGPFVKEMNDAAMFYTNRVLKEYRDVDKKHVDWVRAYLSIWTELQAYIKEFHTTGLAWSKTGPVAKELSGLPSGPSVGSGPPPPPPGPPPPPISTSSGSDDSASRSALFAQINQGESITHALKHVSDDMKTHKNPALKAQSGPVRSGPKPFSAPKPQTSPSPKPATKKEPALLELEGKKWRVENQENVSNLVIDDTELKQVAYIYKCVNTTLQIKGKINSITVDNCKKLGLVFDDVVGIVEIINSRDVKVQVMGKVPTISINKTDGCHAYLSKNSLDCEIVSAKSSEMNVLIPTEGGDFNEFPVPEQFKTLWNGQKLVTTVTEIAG

Measured: binding result

B1: full length Karet protein (RRS bait) (other)
chain: MEEEGKKGKKPGIVSPFKRVFLKGEKSRDKKAHEKVTERRPLHTVVLALPERVEPDRLLSDYIEKEVKYLGQLTSIPGYLNPSSRTEILHFIDKAKRSHQLPGHLTQEHDAVLSLSAYNVKLAWRDGEDIILRVPIHDIAAVSYVRDDAAHLVVLKTAQDPGISPSQSLCAESSRGLSAGSLSESAVGPVEACCLVIMATESKVAAEELCSLLSQVFQIVYTESTIDFLDRAIFDGASTPTHHLSLHSDDSSTKVDMKDSYDADASTFCFPDSGDVGGLPPLPFCMQTSPHSKTVSESELSTSATELLQDYMLTLRTKLSSQEIQQFAALLHEYRNGASIHEFCISLRQLYGDSRKFLLLGLRPFIPEKDSQHFENFLETIGVKDGRGIITDSFGRHRRALSTTSTSTINGNRTTGSPDDRSAPSEGDEWDRMISDISSDIEALGCSMDQDSA
notes: Yeast RRS construct; fusion partner not described; also called whole Karet protein
binds: all assays above

From US20090036380A1 (YEDA RESEARCH AND DEVELOPMENT, published 2009)
